Publication PMC2244712, “One-Pot, Mix-and-Read Peptide-MHC Tetramers” (PLoS ONE, 2008)

Molecular target: in vivo biotinylated HLA-A*0101-BSPHAT heavy chain folded with ß2m (human)
Assay: ELISA

CMV pp65 363-373 peptide (from UniProt P06725 363-373)
% folding: 96%
